Target: SARS-CoV-2 M^pro (Severe acute respiratory syndrome coronavirus 2, UniProt P0DTD1)
Experiment: biochemical
Conditions: IC50 against SARS-CoV-2 M^pro, Table 1 and text

Row | Structure (SMILES) | IC50
1 | Cc1nn(-c2ccc(Cl)cc2)c2c1C(c1cc(Cl)ccc1Cl)C(C#N)=C(N)O2 (stereo not drawn) [Compound 28, 6-Amino-1-(4-chlorophenyl)-4-(2,5-dichlorophenyl)-3-methyl-1,4-dihydropyrano[2,3-c]pyrazole-5-carbonitrile] | 16.4 ± 0.8 µM
2 | COc1cc(C2C(C#N)=C(N)Oc3c2c(C)nn3-c2ccc(Cl)cc2)ccc1O (stereo not drawn) [Compound 32, 6-Amino-1-(4-chlorophenyl)-4-(4-hydroxy-3-methoxyphenyl)-3-methyl-1,4-dihydropyrano[2,3-c]pyrazole-5-carbonitrile] | 14.6 ± 0.7 µM
3 | Cc1nn(-c2ccc(Cl)cc2)c2c1C(c1cccc(Cl)c1Cl)C(C#N)=C(N)O2 (stereo not drawn) [Compound 26, 6-Amino-1-(4-chlorophenyl)-4-(2,3-dichlorophenyl)-3-methyl-1,4-dihydropyrano[2,3-c]pyrazole-5-carbonitrile] | 41.8 ± 2.1 µM
